Experimental data from ChEMBL document CHEMBL3797077, “Design and synthesis of N-(4-aminopyridin-2-yl)amides as B-Raf(V600E) inhibitors” (Bioorg Med Chem Lett, 2016).

Species on record: Homo sapiens
Experiment: Selectivity ratio of IC50 for recombinant wild type full length human GST-tagged B-Raf to IC50 for recombinant human N-terminal GST-tagged B-Raf V600E mutant

## CC(C)(C)c1cccc(C(=O)Nc2cccc(Nc3ccnc(NC(=O)C4CC4)c3)c2)c1
  Ratio IC50: 12
